Source: patent US20260306492A1 (BRISTOL-MYERS SQUIBB COMPANY, priority 2023, published 2026)

System: participants undergoing primary unilateral elective TKR surgery
Assay: Total venous thromboembolism (VTE) in TKR patients, AXIOMATIC-TKR

With `C[C@@H]1CCC[C@H](n2cnc(-c3cc(Cl)ccc3-n3cc(Cl)nn3)cc2=O)c2cc(ccn2)-c2c(cnn2C(F)F)NC1=O` [Milvexian, (5R,9S)-9-(4-(5-chloro-2-(4-chloro-1H-1,2,3-triazol-1-yl)phenyl)-6-oxopyrimidin-1 (6H)-yl)-2^1-(difluoromethyl)-5-methyl-2^1H-3-aza-1 (4,2)-pyridina-2 (5,4)-pyrazolacyclonaphan-4-one] the “total VTE rate” value (combined milvexian, 108 of 796) was 13.6% and the “total VTE rate” value (milvexian BID dose regimens, 63 of 518) was 12.2%.
